From patent publication US12071411B2, “Inhibitors of HIF-2α and methods of use thereof” (ARCUS BIOSCIENCES, INC., priority 2021, dated 2024)
pIC50: −log10 of the molar value. Like-named read-outs stand apart in the source and are kept apart here.

Chains of the proteins cited; added tags and fusions are not shown. Residues count along the entry.
UniProt Q99814, 240-350: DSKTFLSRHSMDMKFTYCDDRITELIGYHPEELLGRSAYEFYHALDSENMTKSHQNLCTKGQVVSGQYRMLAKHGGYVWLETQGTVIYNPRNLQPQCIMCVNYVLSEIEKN

Key:
[1] = target: T1, HIF-2α (Homo sapiens, UniProt Q99814); assay: HIF-2α Luciferase Reporter Assay (serum), HRE-luciferase 786-0 cells in 100% human serum; type: cell-based
Method: (§1) Generation of HIF-2α Luciferase 786-0 Cell Line:
(§2) Stable cell lines were generated by transducing 786-0 cells (ATCC, CRL-1932) with Cignal Lenti HIF Luc Reporter lentivirus (CLS-007L, Qiagen) according to the manufacturer's guidelines. In brief, 0.3×10^6 786-0 cells were transduced with lentivirus at a multiplicity of infection (MOI) of 25 for 24 hours. After transduction, cells were replenished with fresh RPMI 1640 Medium (Cat. No. 11875085, Thermo Fisher) supplemented with 10% FBS (Cat. No. A3160502, Gibco), 2 mM GlutaMAX™ (Cat. No. 35050-061, Invitrogen) and 100 units of penicillin and 100 μg of streptomycin/mL (Cat. No 15070063, Thermo Fisher) for another 24 hours. Antibiotic selection was performed in cell media containing 4 μg/mL of puromycin. After 7 days of antibiotic selection, stable pools of surviving cells were expanded and used in a luciferase reporter assay.
HIF-2α Luciferase Reporter Assay (Serum):
An HRE-luciferase stable reporter 786-0 cell line was maintained in active culture using RPMI 1640 (GIBCO) media supplemented with 1% penicillin-streptomycin, 1% GlutaMAX™, 10% FBS-One Shot (GIBCO) and 4 ug/ml of puromycin (Invitrogen). On the day of the assay, cells were harvested using StemPro™ Accutase™ cell dissociation reagent (GIBCO) and resuspended at 1.5 million cells per milliliter in Opti-MEM™ (GIBCO). 20 ul/well of the resuspended cells were dispensed into a 384 white tissue culture-treated microplate (Corning) and allowed to incubate at 37° C., 5% CO2 for 3 hours. Compounds were prepared by dispensing 0.8 ul of compound in 100% DMSO into a Greiner plate containing 40 ul/well of 100% human serum (Bioreclamation IVT). After 3 hours, media was removed via centrifugation at 500 RPM for 30 seconds and 30 ul/well of compound diluted in human serum was added. The plate was incubated overnight at 37° C., 5% CO2. […] 40 ul/well of ONE-Glo™ reagent was added and allowed to incubate for 10 minutes before reading the luminescence signal on the Envision (PerkinElmer). Data was analyzed using 4-parameter logistic equation to generate IC50.

[2] = target: T2, Biotin tagged HIF-2α protein containing PAS-B domain (240-350) (Homo sapiens, UniProt Q99814); assay: HIF-2α Scintillation Proximity Assay (SPA) binding assay; details: 50 nM HIF-2α protein, 25 nM 3H-tracer, 2% DMSO
T2 construct: Biotin tagged HIF-2α protein containing PAS-B domain (240-350) was prepared and purified in-house; made in house
Method: HIF-2α Scintillation Proximity Assay (SPA) Binding Assay:
Tritium labeled compound N-(3-chlorophenyl)-4-nitro-2,1,3-benzoxadiazol-5-amine was obtained from American Radiolabeled Chemicals Inc. and copper chelate PVT SPA beads were from PerkinElmer (Cat #RPNQ0009). Biotin tagged HIF-2α protein containing PAS-B domain (240-350) was prepared and purified in-house.
Compounds solubilized in DMSO were dispensed into a white 384-well polystyrene non-binding flat clear bottom plate (Greiner Bio-One, Cat #781903) using an HP D300 dispenser. Ten microliters of biotinylated HIF-2α protein in buffer (25 mM Tris-HCl, pH 7.4, 150 mM NaCl, 0.15% BSA and 0.001% Tween 20) was added to the compound wells and allowed to incubate for 1 hour at room temperature. Ten microliters of SPA bead mix were added to the wells and incubated for an additional 45 minutes, followed by 10 ul of ^3H-tracer solution. Final assay conditions comprised 50 nM HIF-2α protein, 25 nM radiolabeled tracer and 3 ug beads per well with compounds in 2% DMSO. The plate was read using a MicroBeta Microplate Counter (PerkinElmer) for luminescence detection. The IC50 values of the test compounds were determined from compound dose response curves fitted using a standard four parameter fit equation and are reported in Table 2.

[3] = target: T1, HIF-2α; assay: HIF-2α Luciferase Reporter Assay (serum free) in HIF-Luc-786-0 cells; type: cell-based
Method: as §1
as §2, with “Antibiotic selection was performed in cell media containing 4 μg/mL of puromycin. After 7 days of antibiotic selection, stable pools of surviving cells were expanded and used in a luciferase reporter assay.” left out
On day one, 20 uL of HIF-Luc-786-0 cells in Opti-MEM™ (Cat. No. 31985088, Thermo Fisher) were seeded into each well of a 384 well white opaque plate (Corning 3570) and incubated at 37° C. and 5% CO2. […] After 20 hours incubation at 37° C. and 5% CO2, luciferase activity was determined using ONE-Glo™ Luciferase Assay Reagent (E6110, Promega) following the manufacture's recommended procedure. Briefly, 40 uL of ONE-Glo™ luciferase reagents were added to each well and luciferase signals were measured using an Envision 2102 Multilabel Reader. Percentage maximum activity in each test well was calculated based on DMSO (maximum activity) and no cell control wells (baseline activity). […]

Row | Serum Shift (approximate) ([1]; ratio of IC50 in 100% serum to IC50 in serum free conditions, approximate) | SMILES | pIC50 [1] | Serum Shift (approximate) [1] | pIC50 [2] | pIC50 [3]
1 |  | COC(CCn1nc(C(F)(F)F)c2c1CCC(F)(F)[C@H]2O)C(F)(F)F (stereo partly drawn) [Example 17, (4S)-5,5-difluoro-1-(4,4,4-trifluoro-3-methoxybutyl)-3-(trifluoromethyl)-6,7-dihydro-4H-indazol-4-ol] | 6.00 to 7.00 | 5 | > 7.00 | > 7.00
2 | 5 | CO[C@H](CCn1nc(C(F)(F)F)c2c1CCC(F)(F)[C@H]2O)C(F)(F)F [Example 12, (4S)-5,5-difluoro-1-[(3R)-4,4,4-trifluoro-3-methoxybutyl]-3-(trifluoromethyl)-6,7-dihydro-4H-indazol-4-ol] |  |  |  | 
